Apparent affinities of Ab-14 variants for a coronavirus HR2 peptide

The measurements come from Engelhart et al. 2022 (doi:10.1038/s41597-022-01779-4) through the FLAb antibody collection.

The target is the same throughout: PDVDLGDISGINAS, from the HR2 region of SARS-CoV-2 spike.

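The starting antibody came from a phage panning campaign against this peptide. The library (AAYL50) carries one to three amino acid substitutions per variant, with no insertions or deletions. The scFvs were displayed on barcoded MATa yeast, the peptide on MATalpha yeast. Binding brings cells together so that they mate, and sequencing counts the barcode pairs among the diploids. Each replicate has its own calibration line, from reference interactions of the BCL2 family. Each pool was mated in three replicate cultures.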

Each scFv is VH, a (GGGGS)3 linker, VL, as in the parent Ab-14, and differs from it in the CDRs of the light chain only.
VH: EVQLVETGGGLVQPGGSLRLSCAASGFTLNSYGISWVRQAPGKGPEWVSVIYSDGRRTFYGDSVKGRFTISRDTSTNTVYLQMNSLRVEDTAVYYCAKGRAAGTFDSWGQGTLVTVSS
VL: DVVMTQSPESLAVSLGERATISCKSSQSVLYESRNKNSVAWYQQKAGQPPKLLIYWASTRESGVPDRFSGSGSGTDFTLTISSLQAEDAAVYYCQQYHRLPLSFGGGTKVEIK

Positions count from residue 1 of the parent VL; Q27K puts K in place of Q.
Kd is apparent (estimated from mating counts) and averaged on the log scale over replicates with a signal. Smaller is tighter.
An entry "nd" has no value in the source: the pair was not observed among the diploids in any replicate. This suggests poor binding but is not conclusive.
Parent in this assay: reference entry 4.4 nM, copy in this library 48 nM.
Background: pairings of library AAYL50 with three empty control strains gave a value in 18% of cases (median 15 µM, 5th percentile 970 nM). Values in that range, when seen in few replicates, are hard to tell from nonspecific mating. For each scFv, signals with the empty controls are counted beside the result.

Kd (apparent)	replicates with signal	signal with controls	changes
nd	0/3	2/9	Q27K V29Y Q95R
1.5 µM	1/3	0/9	N35L Y97N S103E
nd	0/3	1/9	S25V V29R A40H
1.9 nM	3/3	1/9	L100M P101Y
310 µM	3/3	9/9	N37T A40D S103M
2.0 nM	3/3	0/9	L30S N35K W56A
120 nM	3/3	3/9	Q27W V29M A57E
nd	0/3	0/9	Q27M S62D L100G
330 µM	1/3	3/9	A40E L100Q
12 nM	3/3	1/9	Y31T A57S
4.0 µM	2/3	3/9	A40Y A57D Q96T
nd	0/3	0/9	S33W E61R S103L
nd	0/3	0/9	S38K A40K E61A
260 nM	3/3	1/9	S28C Q95R H98A
37 nM	3/3	3/9	Q27E L30Y R99S
24 nM	3/3	3/9	N35M N37Q
43 nM	3/3	5/9	S26Y N35L K36Q
8.1 µM	1/3	1/9	Q27C R60Y Q96G
4.7 nM	3/3	0/9	Y31T S38P A57T
30 nM	3/3	0/9	Y31F S33F S62H
37 nM	3/3	3/9	L30F Y97H R99S
140 µM	1/3	3/9	K24V S28A V39T
78 µM	1/3	1/9	Q27P L30R R99S
9.6 µM	1/3	2/9	A40Y L102Q S103R
nd	0/3	0/9	V39R S58V
170 µM	3/3	4/9	S26M W56M Q95T
40 µM	3/3	6/9	N37F A40V W56C
nd	0/3	0/9	R60A R99P S103T
7.2 nM	3/3	2/9	K36M L102V
nd	0/3	1/9	S26G S38K L100V
1.8 µM	3/3	2/9	R34L S38F Q95M
nd	0/3	1/9	W56P E61S L102V
nd	0/3	0/9	R60P Q96D R99N
7.6 nM	3/3	1/9	S58T L102K
nd	0/3	1/9	K24Y R60P R99Y
20 nM	3/3	2/9	Q27S T59H
31 µM	3/3	5/9	S33T A57R H98V
nd	0/3	3/9	S26V E61R S62K
88 µM	3/3	2/9	S25Q S26H V39F
550 nM	3/3	5/9	K36M N37Y A57E
400 nM	3/3	4/9	S25E Y31A N35C
nd	0/3	0/9	S28A K36R P101Y
12 nM	3/3	3/9	S33N T59V
6.2 nM	3/3	0/9	L100H P101M
25 nM	3/3	0/9	S26Y Q27C Y31Q
15 nM	3/3	0/9	Y31N S58V

The 5 strongest on average among those seen in every replicate, once more:

changes	Kd (apparent)	replicates with signal	signal with controls
L100M P101Y	1.9 nM	3/3	1/9
L30S N35K W56A	2.0 nM	3/3	0/9
Y31T S38P A57T	4.7 nM	3/3	0/9
L100H P101M	6.2 nM	3/3	0/9
K36M L102V	7.2 nM	3/3	2/9